Publication PMC3678023 (Journal of Molecular Biology, 2013)

The chains behind the UniProt entries cited, without tags or fusion partners.
UniProt P31652, whole entry: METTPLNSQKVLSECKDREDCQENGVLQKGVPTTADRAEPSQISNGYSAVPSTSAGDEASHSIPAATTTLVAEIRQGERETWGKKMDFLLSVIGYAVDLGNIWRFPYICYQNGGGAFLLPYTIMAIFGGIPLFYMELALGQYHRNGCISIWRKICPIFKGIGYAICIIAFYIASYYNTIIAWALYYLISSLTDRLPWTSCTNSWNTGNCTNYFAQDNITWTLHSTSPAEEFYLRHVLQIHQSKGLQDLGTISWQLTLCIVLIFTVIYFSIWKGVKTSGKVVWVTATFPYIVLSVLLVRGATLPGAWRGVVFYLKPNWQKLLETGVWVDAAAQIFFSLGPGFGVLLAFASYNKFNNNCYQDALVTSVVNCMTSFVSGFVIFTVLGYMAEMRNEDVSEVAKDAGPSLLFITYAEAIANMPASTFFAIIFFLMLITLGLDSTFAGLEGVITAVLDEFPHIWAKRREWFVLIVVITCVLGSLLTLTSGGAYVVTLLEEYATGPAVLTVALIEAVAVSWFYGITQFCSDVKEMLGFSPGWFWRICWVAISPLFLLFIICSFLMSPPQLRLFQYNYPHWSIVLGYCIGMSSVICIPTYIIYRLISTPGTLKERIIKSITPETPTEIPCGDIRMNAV

Molecular target: wild-type SERT (Rattus norvegicus, UniProt P31652)
Conditions: read-out: Apparent Ki; wild-type SERT membranes, 0.2 nM [125I]RTI55

ibogaine gave a Ki of 20 ± 14 nM.
